In experiment [1] the target is T1, Cannabinoid receptor 1 (Rattus norvegicus, UniProt P20272). As to the kind of experiment: Displacement of [3H]CP-55,940 from CB1 receptor in rat brain membranes in presence of FAAH inhibitor PMSF by radioligand binding assay. The format is cell membranes, Membrane. Summed up: (§1)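 Rat brain membranes, tested either pretreated with PMSF to block amidase activity or untreated, competing against [3H]CP-55,940. IC50 by nonlinear regression, converted to Ki. Three independent experiments run in triplicate; Ki is the mean of the three. Untreated-membrane incubation 1 h at 30 °C.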

Sequences of proteins named here, by UniProt entry; tags and fusion partners are left off.
UniProt P20272, whole entry: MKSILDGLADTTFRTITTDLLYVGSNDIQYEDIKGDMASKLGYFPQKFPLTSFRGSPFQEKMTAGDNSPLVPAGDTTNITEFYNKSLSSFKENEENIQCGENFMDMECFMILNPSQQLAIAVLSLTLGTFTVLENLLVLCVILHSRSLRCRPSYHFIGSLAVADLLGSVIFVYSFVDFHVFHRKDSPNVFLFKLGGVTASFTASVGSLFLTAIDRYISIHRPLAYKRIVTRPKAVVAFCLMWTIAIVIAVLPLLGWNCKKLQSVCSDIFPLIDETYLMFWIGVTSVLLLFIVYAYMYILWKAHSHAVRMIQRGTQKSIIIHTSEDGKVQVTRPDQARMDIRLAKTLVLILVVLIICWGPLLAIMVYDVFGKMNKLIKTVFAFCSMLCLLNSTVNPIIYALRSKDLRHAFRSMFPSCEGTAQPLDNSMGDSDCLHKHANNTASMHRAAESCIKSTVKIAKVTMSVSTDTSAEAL

Experiment [2] has as its target T1, Cannabinoid receptor 1. As to the kind of experiment: Agonist activity at rat CB1 receptor expressed in HEK293 cells assessed as inhibition of forskolin-induced cAMP accumulation incubated for 30 mins. In kind it is functional, cell-based. Summed up:
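HEK293 cells stably expressing rCB1, harvested with nonenzymatic dissociation reagent, washed in HBSS, 1000–1500 cells/well. Test compound at various concentrations with forskolin (2 μM final) in stimulation buffer, 30 min at room temperature. cAMP read by TR-FRET (Eu-cAMP tracer plus ULight anti-cAMP, 60 min room temperature). Forskolin-stimulated cAMP set to 100%. EC50 from nonlinear regression; two independent experiments in triplicate.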

Experiment [3] deals with T1, Cannabinoid receptor 1. As to the kind of experiment: Displacement of [3H]CP-55,940 from CB1 receptor in rat brain membranes in absence of FAAH inhibitor PMSF by radioligand binding assay. In kind it is cell membranes, Membrane. Summed up: as §1

On to `CCCCC/C=C\C/C=C\C/C=C\C/C=C\CCCC(=O)NCCO` [ANANDAMIDE], for which the results for the inhibition constant Ki at Cannabinoid receptor 1 [1] and on Cannabinoid receptor 1 [3] were 0.074 µM and above 1 µM, respectively. Besides, on Cannabinoid receptor 1 [2], the EC50 stood at 0.069 µM.

As to `CCCCC/C=C\C/C=C\C/C=C\C/C=C\CCCC(=O)N[C@H](C)CO` [METHANANDAMIDE], the figures for the inhibition constant Ki at Cannabinoid receptor 1 [1] and at Cannabinoid receptor 1 [3] were 0.037 µM and 0.072 µM, respectively.

The record behind these values is ChEMBL document CHEMBL4196195, “( R)- N-(1-Methyl-2-hydroxyethyl)-13-( S)-methyl-arachidonamide (AMG315): A Novel Chiral Potent Endocannabinoid Ligand with Stability to Metabolizing Enzymes” (J Med Chem, 2018).
